In this assay the test system is Staphylococcus aureus. Briefly: Agar-dilution MIC. It counts as cell-based.
The mark [1] stands for this setting: Table 17, 24 hours, Staphylococcus aureus S13E.

Our source for the MIC values is patent US4559323A, “A41030 Antibiotics” (Eli Lilly and Company, priority 1984, dated 1985).

Like-named read-outs stand apart in the source and are kept apart here.

Regarding A41030 factor C, the MIC is 0.5 µg/mL. Under setting [1], this substance had an MIC of 0.5 µg/mL. Besides, the MIC (Table 17, 24 hours, Staphylococcus aureus V41) is 0.5 µg/mL.
A41030 factor G gave an MIC of 1 µg/mL. The same substance displayed a minimal inhibitory concentration (MIC) (Table 17, 24 hours, Staphylococcus aureus 3055) of 0.5 µg/mL. The same substance came in with an MIC under setting [1] of 1 µg/mL.
